Measurements published in US20260384438A1, “PYRROLOPYRIMIDINE CARBOXAMIDES” (published 2026).

The chains behind the UniProt entries cited, without tags or fusion partners. Residues count along the entry.
UniProt Q99640, whole entry: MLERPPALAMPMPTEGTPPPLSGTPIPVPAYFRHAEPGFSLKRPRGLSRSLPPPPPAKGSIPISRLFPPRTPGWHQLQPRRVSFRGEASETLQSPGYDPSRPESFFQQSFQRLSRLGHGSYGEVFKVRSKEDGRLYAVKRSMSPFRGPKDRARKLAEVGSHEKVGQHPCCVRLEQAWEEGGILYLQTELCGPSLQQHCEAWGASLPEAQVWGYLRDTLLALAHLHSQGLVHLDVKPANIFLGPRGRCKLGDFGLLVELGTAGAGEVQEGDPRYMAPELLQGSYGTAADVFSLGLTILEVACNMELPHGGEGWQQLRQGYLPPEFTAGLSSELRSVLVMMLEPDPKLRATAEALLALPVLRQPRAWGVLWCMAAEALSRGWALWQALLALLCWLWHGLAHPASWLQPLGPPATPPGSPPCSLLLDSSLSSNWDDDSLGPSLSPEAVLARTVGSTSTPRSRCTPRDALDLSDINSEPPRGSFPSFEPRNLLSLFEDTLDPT
UniProt P54753, 34-998 limits assumed: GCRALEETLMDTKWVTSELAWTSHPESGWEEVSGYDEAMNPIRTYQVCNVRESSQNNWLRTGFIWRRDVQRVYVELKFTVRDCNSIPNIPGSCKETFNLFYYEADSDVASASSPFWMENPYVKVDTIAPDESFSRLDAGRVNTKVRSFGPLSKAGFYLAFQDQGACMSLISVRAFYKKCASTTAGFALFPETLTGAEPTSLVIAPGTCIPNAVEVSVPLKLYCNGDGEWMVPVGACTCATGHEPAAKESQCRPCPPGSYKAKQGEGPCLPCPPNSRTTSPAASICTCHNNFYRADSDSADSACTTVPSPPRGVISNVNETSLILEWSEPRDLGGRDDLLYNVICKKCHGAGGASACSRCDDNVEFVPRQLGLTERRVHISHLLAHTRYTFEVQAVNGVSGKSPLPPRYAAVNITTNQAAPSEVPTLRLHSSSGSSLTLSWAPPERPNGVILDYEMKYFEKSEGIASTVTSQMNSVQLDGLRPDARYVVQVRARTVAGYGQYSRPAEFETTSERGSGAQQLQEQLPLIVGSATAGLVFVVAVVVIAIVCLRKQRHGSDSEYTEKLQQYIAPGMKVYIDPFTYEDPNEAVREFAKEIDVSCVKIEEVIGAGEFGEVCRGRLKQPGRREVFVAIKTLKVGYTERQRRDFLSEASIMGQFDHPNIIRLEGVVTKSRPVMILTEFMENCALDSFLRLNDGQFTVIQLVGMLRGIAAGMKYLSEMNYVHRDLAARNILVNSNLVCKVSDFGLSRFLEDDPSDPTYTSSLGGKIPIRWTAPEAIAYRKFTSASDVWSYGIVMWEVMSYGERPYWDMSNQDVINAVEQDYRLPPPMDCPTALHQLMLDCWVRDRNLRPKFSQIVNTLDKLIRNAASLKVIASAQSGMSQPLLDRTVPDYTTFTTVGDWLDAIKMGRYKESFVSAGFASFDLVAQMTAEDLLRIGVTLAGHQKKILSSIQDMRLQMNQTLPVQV
UniProt P30291, whole entry: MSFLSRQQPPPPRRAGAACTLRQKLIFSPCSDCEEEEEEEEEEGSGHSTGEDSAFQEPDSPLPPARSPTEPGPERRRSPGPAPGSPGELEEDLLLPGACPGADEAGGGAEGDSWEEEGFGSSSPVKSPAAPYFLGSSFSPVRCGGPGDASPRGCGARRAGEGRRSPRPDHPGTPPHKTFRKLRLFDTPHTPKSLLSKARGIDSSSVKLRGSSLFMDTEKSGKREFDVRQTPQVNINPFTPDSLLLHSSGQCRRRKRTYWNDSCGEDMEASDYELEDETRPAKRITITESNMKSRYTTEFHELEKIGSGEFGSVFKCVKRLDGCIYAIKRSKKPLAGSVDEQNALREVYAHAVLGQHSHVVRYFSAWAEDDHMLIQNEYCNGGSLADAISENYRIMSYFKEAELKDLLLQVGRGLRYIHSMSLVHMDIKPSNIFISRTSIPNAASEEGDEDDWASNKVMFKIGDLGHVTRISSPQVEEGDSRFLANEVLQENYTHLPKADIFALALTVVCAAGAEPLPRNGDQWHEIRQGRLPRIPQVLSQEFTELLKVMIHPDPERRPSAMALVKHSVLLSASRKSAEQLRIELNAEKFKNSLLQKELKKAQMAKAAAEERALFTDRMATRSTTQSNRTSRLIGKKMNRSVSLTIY

Key:
PKMYT1 = PKMYT1 (Homo sapiens, UniProt Q99640); assay: NanoBRET target engagement in HEK293T cells, PKMYT1; conditions: read-out: PKMYT1 INHIBITION IC50, 2 h
EPHB3 = EPHB3 (Homo sapiens, UniProt P54753); assay: NanoBRET target engagement in HEK293T cells, EPHB3; conditions: read-out: EPHB3 INHIBITION IC50, 2 h
[1] = target: CDK1 pThr14 (PKMYT1 substrate), FUOV-1 cells (Homo sapiens, UniProt Q99640); assay: Functional CDK1 pThr14 AlphaLISA assay in FUOV-1 cells; conditions: read-out: pCDk1(Thr14) INHIBITION IC50, 2 h
Log D octanol/PBS pH 7.4 = conditions: octanol/PBS pH 7.4, 1 μM
WEE1 = WEE1 (Homo sapiens, UniProt P30291); assay: NanoBRET target engagement in HEK293T cells, WEE1; conditions: read-out: WEE1 INHIBITION IC50, 2 h
[2] = Metabolic stability in human liver microsomes (HLM); conditions: human liver microsomes 1 mg/mL, 1 μM
SKOV3 cells = assay: Cellular proliferation (Hoechst staining), SKOV3; conditions: read-out: SKOV3 GI50; CCNE1-nonamplified, 4 days
OVCAR3 cells = assay: Cellular proliferation (Hoechst staining), OVCAR3; conditions: read-out: OVCAR3 GI50; CCNE1-amplified, 4 days
[3] = Aqueous (thermodynamic) solubility, pH 7.4; conditions: 0.1 M phosphate buffer pH 7.4, 24 h, 25 °C

SMILES	pIC50 (PKMYT1)	pIC50 (EPHB3)	pIC50 [1]	LogD (Log D octanol/PBS pH 7.4)	pIC50 (WEE1)	HLM (CLint) [2]	GI50 (SKOV3 cells)	GI50 (OVCAR3 cells)	Solubility pH 7.4 [3]
Cc1ccc(O)c(C)c1-n1c(N)c(C(N)=O)c2cnc(-c3cncn3C)nc21 (racemic)	6.88	6.23	5.70	1.8	< 5.00	10.900 µL/min/mg	> 30 µM	14.2 µM	935 μM
Cc1ccc(O)c(C)c1-n1c(N)c(C(N)=O)c2cnc(N3CC(F)(F)C3)nc21 (racemic)	7.72	6.35	6.62	2.29	< 5.00	41.253 µL/min/mg			125 μM
Cc1ccc(O)c(C)c1-n1c(N)c(C(N)=O)c2cn(C)c(=O)cc21 (single isomer, unassigned) [56, Isomer 2]	< 5.00	< 5.00	< 5.00		< 5.00	<3.000 µL/min/mg	> 30 µM	> 30 µM	
Cc1ccc(O)c(C)c1-n1c(N)c(C(N)=O)c2cnc(C3CC3)nc21 (single isomer, unassigned) [50, Isomer 2]	5.41	< 5.00	< 5.00		< 5.00	16.252 µL/min/mg	> 30 µM	> 30 µM	
Cc1ccc(O)c(C)c1-n1c(N)c(C(N)=O)c2cnc(C(C)C)nc21 (single isomer, unassigned) [48, Isomer 1]	7.92	6.33	6.73		< 5.00	74.193 µL/min/mg	15.4 µM	6.98 µM	
Cc1cc2c(cn1)c(C(N)=O)c(N)n2-c1c(C)ccc(O)c1C (single isomer, unassigned) [52, Isomer 2]	6.43	5.14	< 5.00		< 5.00	<3.000 µL/min/mg	> 30 µM	> 30 µM	
Cc1ccc(O)c(C)c1-n1c(N)c(C(N)=O)c2cnc(C(F)(F)F)nc21 (single isomer, unassigned) [62, Isomer 1]	< 5.00	< 5.00	< 5.00		< 5.00	23.800 µL/min/mg	> 30 µM	29.3 µM	
Cc1ccc(O)c(C)c1-n1c(N)c(C(N)=O)c2cnc(C(C)C)nc21 (single isomer, unassigned) [48, Isomer 2]	6.24	< 5.00	5.18		< 5.00	29.010 µL/min/mg	> 30 µM	7.57 µM	
CCn1cc2c(C(N)=O)c(N)n(-c3c(C)ccc(O)c3C)c2nc1=O (single isomer, unassigned) [79, Isomer 2]	< 5.00	< 5.00	< 5.00		< 5.00	<3.000 µL/min/mg	> 30 µM	> 30 µM	
COc1nc(C)nc2c1c(C(N)=O)c(N)n2-c1c(C)ccc(O)c1C (racemic)	8.10	6.77	7.14	2.2	< 5.00	16.200 µL/min/mg			
Cc1ccc(O)c(C)c1-n1c(N)c(C(N)=O)c2cnc(Br)nc21 (racemic)	7.74	5.76	6.46	1.9	< 5.00	8.140 µL/min/mg			150 μM
Cc1ccc(O)c(C)c1-n1c(N)c(C(N)=O)c2cnc(N3CCC(F)(F)C3)nc21 (racemic)	8.05	7.04	6.61	2.78	< 5.00	52.407 µL/min/mg			5 μM
C=Cc1ncc2c(C(N)=O)c(N)n(-c3c(C)ccc(O)c3C)c2n1 (single isomer, unassigned) [17, Isomer 1]	8.10	6.56	6.97		< 5.00	21.352 µL/min/mg	4.57 µM	1.4 µM	
Cc1ncc2c(C(N)=O)c(N)n(-c3c(C)ccc(O)c3Cl)c2n1 (racemic)	7.64	5.62	6.63		< 5.00		18.2 µM	1.46 µM	
C=Cc1ncc2c(C(N)=O)c(N)n(-c3c(C)ccc(O)c3C)c2n1 (single isomer, unassigned) [17, Isomer 2]	5.44	< 5.00	< 5.00		< 5.00	13.514 µL/min/mg	> 30 µM	> 30 µM	
Cc1ccc(O)c(C)c1-n1c(N)c(C(N)=O)c2cnc(N3CCN(C)CC3)nc21 (single isomer, unassigned) [70, Isomer 2]	5.92	< 5.00	< 5.00		< 5.00	17.436 µL/min/mg	> 30 µM	> 30 µM	
Cc1ncc2c(C(N)=O)c(N)n(-c3c(Br)ccc(O)c3C)c2n1 (single isomer, unassigned) [86, Isomer 2]	7.60	5.24	6.48		5.15	4.611 µL/min/mg	17.1 µM	3.26 µM	
Cc1ncc2c(C(N)=O)c(N)n(-c3c(Cl)ccc(O)c3Cl)c2n1 (single isomer, unassigned) [85, Isomer 1]	7.40	< 5.02	6.59		< 5.35	<3.000 µL/min/mg			
Cc1ncc2c(C(N)=O)c(N)n(-c3c(Br)ccc(O)c3C)c2n1 (single isomer, unassigned) [86, Isomer 1]	6.25	< 5.00	5.24		< 5.00	<3.000 µL/min/mg	> 30 µM	> 30 µM	
Cc1ccc(O)c(C)c1-n1c(N)c(C(N)=O)c2cnc(C(F)(F)F)nc21 (single isomer, unassigned) [62, Isomer 2]	7.85	6.00	6.38		< 5.00	33.100 µL/min/mg	> 30 µM	14.2 µM	
Cc1cc2c(nn1)c(C(N)=O)c(N)n2-c1c(C)ccc(O)c1C (single isomer, unassigned) [53, Isomer 1]	< 5.00	< 5.00	< 5.00		< 5.00	6.800 µL/min/mg			
Cc1ccc(O)c(C)c1-n1c(N)c(C(N)=O)c2cnc(N3CC(C)(C)C3)nc21 (single isomer, unassigned) [135, Isomer 2]	5.71	< 5.00	< 5.00		< 5.00	42.608 µL/min/mg			
Cc1ccc(O)c(C)c1-n1c(N)c(C(N)=O)c2cnc(C3CC3)nc21 (single isomer, unassigned) [50, Isomer 1]	8.10	6.77	6.96		< 5.00	34.347 µL/min/mg	6.03 µM	3.65 µM	

pIC50: −log10 of the molar value.
